Data: patent US10682371B2, “Small molecule conjugates specifically activated in tumor microenvironment for targeting and use thereof” (priority 2014, dated 2020)

Assays:
asparagine endopeptidase = molecular target: T1, asparagine endopeptidase (Homo sapiens, UniProt Q99538); conditions: S1-S6, 1 mg/ml; 10 μg/ml acidified asparagine endopeptidase; 37°
T1 sequence (Q99538 26-323 limits assumed): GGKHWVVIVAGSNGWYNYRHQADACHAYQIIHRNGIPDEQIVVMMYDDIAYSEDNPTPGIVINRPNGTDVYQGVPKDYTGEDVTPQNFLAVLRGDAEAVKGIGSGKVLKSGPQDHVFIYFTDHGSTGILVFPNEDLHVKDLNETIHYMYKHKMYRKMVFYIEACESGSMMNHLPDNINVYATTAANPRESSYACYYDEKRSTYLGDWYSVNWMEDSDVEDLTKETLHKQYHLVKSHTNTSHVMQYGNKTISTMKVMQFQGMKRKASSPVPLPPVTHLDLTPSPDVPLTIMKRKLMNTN
Procedure: Reduction of reactant and increase of product were detected by HPLC, thereby comparing the activation efficiency of these compounds.
(§1) When R1 is 2-(2-Methoxyethoxy)Acetyl, and R3 is Ala, activation study and efficacy study were carried out by using compounds having different cleavable linker. The study methods are identical to those in Examples 10, 11 and 12. The in vitro activation efficiency was tested by asparagine endopeptidase and the tumor inhibition rate was tested by using human breast cancer MDA-MB231 model.

[1] = system: Human fibrosarcoma HT-1080 tumor tissue homogenate; format: biochemical; conditions: Human fibrosarcoma HT-1080 tumor tissue homogenate (30 μg/ml); 1 mg/ml compound
Procedure: (§2) At 37 °C, sample compounds were added into 100 μg acidized tumor tissue homogenates (pH6.0) in a concentration of 1 mg/ml.
(§3) […], sample compounds were added into 100 μg acidized tumor tissue homogenates (pH6.0) in a concentration of 1 mg/ml.
(§4) At 37 °C, sample compounds were added into 100 μg acidized tumor tissue homogenates in a concentration of 1 mg/ml.
(§5) In the experiments, at 37 °C, compounds were added into proteases in 100 μg acidized tumor tissue homogenates in a concentration of 1 mg/ml. […] Meanwhile certain compounds produced in the screening were compared and their activation efficiency in same tissue was analyzed.
(§6) At 37° C., compounds were added into proteases in 100 μg acidized tumor tissue homogenates in a concentration of 1 mg/ml.

[2] = system: Human ovarian cancer SK-OV-3 tumor tissue homogenate; format: biochemical; conditions: Human ovarian cancer SK-OV-3 tumor tissue homogenate (30 μg/ml); 1 mg/ml compound
Procedure: as §2, §3, §4, §5, §6

[3] = system: Human prostate cancer PC-3 tumor tissue homogenate; format: biochemical; conditions: Human prostate cancer PC-3 tumor tissue homogenate (30 μg/ml); 1 mg/ml compound
Procedure: as §2, §3, §4, §5, §6

tumor tissue homogenates = format: biochemical
Procedure: as §2, §3, §4, §5, §6

[4] = system: Human breast cancer MDA-MB231 cells; experiment: animal or person; format: in vivo, nude mice; conditions: MDA-MB231, nude mice, IV 13.2 μmol/kg once weekly for four weeks
Procedure: 1) Human breast cancer MDA-MB231 cells were purchased from American type culture collection (ATCC) and identified according the specification provided by ATCC. Cells were cultivated in […] (DMEM culture medium) containing 10% fetal bovine serum at 37° C. and 5% CO2. The cells were passaged for every three days and cells within the 15th passage were used.
2) Production of tumor. 5×10^6 MDA-MB231 cells were subcutaneously injected to the back of the nude mice. Mice were randomly grouped after the tumor reached at least 100 mm^3. Then treatment began and the day on which the treatment began was day 1.
3) Course of treatment. […] The drugs were administered once weekly for four weeks.
as §1, with “model. […]” for “model.”

D121 lung tumor cells = format: in vivo; conditions: D121 immunized C57 mice, 13.2 μmol/kg weekly, PDL1 antibody 5 μg/kg where combined
Procedure: 1) D121 lung tumor cells were purchased from ATCC. Cells were cultivated in DMEM culture solution containing 10% fetal bovine serum at 37° C. and 5% CO2. The cells were passaged for every three days and cells within the 15th passage were used.
(§7) 2) Tumor immunization. 5×10^5 D121 lung cancer cells (purchased from ATCC) which were killed by irradiation were intraperitoneally injected to mice. The mice were injected for 3 times, once every two weeks. After immunization, mice were injected with tumor cells and the drugs were administered weekly for 4 weeks.
3) Production of tumor. At day 32, 10^6 live lung tumor cells were subcutaneously injected to the back of the C57 mice immunized by tumor. Treatment began when the tumor grew to 0.3-0.4 cm.
as §7, with “4 weeks. In table 16 below the immune group was immuned with D121 lung tumor cells and the group without dead D121 lung tumor cells was injected with physiological saline as controls.” for “4 weeks.”
3) Production of tumor. After immunization (4 weeks later), 10^6 live lung tumor cells were subcutaneously injected to the back of the C57 mice immunized by tumor. Treatment began when the tumor grew to 0.3-0.4 cm. Tumor size (mm^3) were noted and tumor inhibition rates were calculated.
as §7, with “4 weeks. In the table below the immune group was immuned with D121 lung tumor cells and the group without dead D121 lung tumor cells was injected with physiological saline as controls.” for “4 weeks.”
3) Production of tumor. […]

COCCOCC(=O)N[C@H](C(=O)N[C@@H](C)C(=O)N[C@@H](CC(N)=O)C(=O)Nc1ccc(COC(=O)N[C@H]2C[C@H](O[C@H]3C[C@](O)(C(C)=O)Cc4c(O)c5c(c(O)c43)C(=O)c3c(OC)cccc3C5=O)O[C@@H](C)[C@H]2O)cc1)C(C)O (stereo partly drawn) [Compound S4, 4-N—(N—(N—(N-2-(2-methoxyethoxy)acetyl-L-threonyl)-L-alanyl)-L-asparaginyl)-amino benzyl alcohol-daunorubicin-carbamate]
Activation Efficiencies (%) (asparagine endopeptidase): 84.3% | Activation Efficiencies (%) [1]: 78.4% | Activation Efficiencies (%) [2]: 78.4% | Activation Efficiencies (%) [3]: 78.3% | Activation efficiency by tumor tissue, in words (tumor tissue homogenates): very high activation efficiency | Inhibitory rate on tumor (%) Day 10 ([4]; Day 10): 69% | Inhibitory rate on tumor (%) Day 24 ([4]; Day 24): 94% | Inhibitory rate on tumor Day 18 (D121 lung tumor cells): 76.67
